We go through one compound from ChEMBL document CHEMBL2417388, “Design and synthesis of (4E)-4-(4-substitutedbenzylideneamino)-3-substituted-2,3-dihydro-2-thioxothiazole-5-carbonitrile as novel A2A receptor antagonists” (Bioorg Med Chem, 2013).

The target in this experiment is Adenosine receptor A2a (Homo sapiens, UniProt P29274). Kind of experiment: Agonist activity at human A2A receptor expressed in HEK293 cells assessed as stimulation of cAMP release at 1 uM after 15 mins. The experiment is classed as functional, cell-based.

Molecules are shown by their SMILES.

For the compound `N#Cc1sc(=S)n(-c2ccccc2)c1/N=C/c1ccc(Br)cc1`, the Activity turned out to be 0.65 pmol/mL.
